Reference: US20050089495A1, “Transdermal transport of compounds” (priority 2001, published 2005)

Assay: Acute transdermal penetration of 3H-Estradiol and 3H-Estradiol Phosphate in the hairless rat model

C[C@]12CC[C@@H]3c4ccc(O)cc4CC[C@H]3[C@@H]1CC[C@@H]2OP(=O)(O)O [EP, Estradiol Phosphate]
amount remaining in the skin (24 hours after application, individual skin layers analysed): minimal | transdermal absorption in comparison to E (tritiated compounds, 5 μg in carrier cream, FIG. 2): more readily absorbed
